Test results published in patent US8921555B2, “Substituted-1,3,8-triazaspiro[4.5]decane-2,4-diones” (Merck Sharp & Dohme Corp., priority 2009, dated 2014).
Like-named read-outs stand apart in the source and are kept apart here.

Chains of the proteins cited; added tags and fusions are not shown.
UniProt Q96KS0, whole entry: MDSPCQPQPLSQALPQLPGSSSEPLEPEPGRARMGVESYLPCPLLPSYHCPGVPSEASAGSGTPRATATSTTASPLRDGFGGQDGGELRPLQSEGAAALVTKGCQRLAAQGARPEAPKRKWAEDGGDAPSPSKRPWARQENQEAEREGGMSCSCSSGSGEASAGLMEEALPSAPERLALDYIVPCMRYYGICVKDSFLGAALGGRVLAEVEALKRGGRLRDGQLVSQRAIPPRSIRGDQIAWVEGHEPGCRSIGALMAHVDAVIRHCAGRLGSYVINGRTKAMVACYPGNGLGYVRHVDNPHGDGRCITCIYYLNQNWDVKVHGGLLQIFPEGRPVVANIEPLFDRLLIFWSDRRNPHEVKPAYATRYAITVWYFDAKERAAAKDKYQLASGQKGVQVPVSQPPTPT
UniProt Q9GZT9, whole entry: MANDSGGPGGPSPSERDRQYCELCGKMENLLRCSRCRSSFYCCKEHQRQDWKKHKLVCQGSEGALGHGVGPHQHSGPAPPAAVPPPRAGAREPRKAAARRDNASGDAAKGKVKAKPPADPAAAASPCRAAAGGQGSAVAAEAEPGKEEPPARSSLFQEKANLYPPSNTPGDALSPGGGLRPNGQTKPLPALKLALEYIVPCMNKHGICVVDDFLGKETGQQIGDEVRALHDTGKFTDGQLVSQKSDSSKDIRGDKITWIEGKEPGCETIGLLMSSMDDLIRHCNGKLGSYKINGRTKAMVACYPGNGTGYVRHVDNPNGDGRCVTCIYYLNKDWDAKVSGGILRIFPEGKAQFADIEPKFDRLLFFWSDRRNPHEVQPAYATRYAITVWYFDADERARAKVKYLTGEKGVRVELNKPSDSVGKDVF
UniProt Q9H6Z9, whole entry: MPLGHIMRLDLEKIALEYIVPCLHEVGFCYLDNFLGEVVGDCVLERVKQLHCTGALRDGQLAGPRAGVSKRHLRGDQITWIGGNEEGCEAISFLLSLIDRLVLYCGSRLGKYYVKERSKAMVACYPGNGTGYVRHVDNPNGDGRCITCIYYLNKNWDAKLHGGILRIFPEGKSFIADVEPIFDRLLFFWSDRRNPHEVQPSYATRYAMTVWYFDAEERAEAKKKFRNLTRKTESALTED

Legend:
HIF-PHD1 = HIF-PHD1 (Homo sapiens, UniProt Q96KS0); experiment: Inhibition of the catalytic activity of HIF-PHD1; conditions: read-out: IC50 (nM) HIF-PHD-1, comparison compounds of WO 2008/030412
HIF-PHD2 = HIF-PHD2 (Homo sapiens, UniProt Q9GZT9); experiment: Assay for HIF-PHD2 Catalytic Activity (PHD2 Binding Activity); type: biochemical; conditions: read-out: IC50 (nM) HIF-PHD-1 (second entry of the head; HIF-PHD2 in the text), comparison compounds of WO 2008/030412
HIF-PHD3 = HIF-PHD3 (Homo sapiens, UniProt Q9H6Z9); experiment: Inhibition of the catalytic activity of HIF-PHD3; conditions: read-out: IC50 (nM) HIF-PHD-3, comparison compounds of WO 2008/030412

Compound	IC50 (HIF-PHD1; tested form: TFA) [nM]	IC50 (HIF-PHD2; tested form: TFA) [nM]	IC50 (HIF-PHD3; tested form: TFA) [nM]	IC50 (HIF-PHD1) [nM]	IC50 (HIF-PHD2) [nM]	IC50 (HIF-PHD3) [nM]
Cc1cc(CN2C(=O)N(c3cccc(F)c3)[C@@]3(CCN(Cc4ccoc4)[C@@H](C)C3)C2=O)no1	> 50000	> 50000	> 50000			
Cc1cc(CN2C(=O)N(c3cccc(F)c3)[C@@]3(CCN(Cc4cccnc4)[C@@H](C)C3)C2=O)no1				> 10000	> 10000	> 10000
